The text below walks through data of US20260308224A1, “METHODS AND COMPOSITIONS FOR DISPLAYING PEPTIDE LIBRARIES” (priority 2023, published 2026).

Amino acid sequences for entries named in this document (tags omitted). A change or cut given only in a name is not applied to a line headed by its entry.
UniProt P41145: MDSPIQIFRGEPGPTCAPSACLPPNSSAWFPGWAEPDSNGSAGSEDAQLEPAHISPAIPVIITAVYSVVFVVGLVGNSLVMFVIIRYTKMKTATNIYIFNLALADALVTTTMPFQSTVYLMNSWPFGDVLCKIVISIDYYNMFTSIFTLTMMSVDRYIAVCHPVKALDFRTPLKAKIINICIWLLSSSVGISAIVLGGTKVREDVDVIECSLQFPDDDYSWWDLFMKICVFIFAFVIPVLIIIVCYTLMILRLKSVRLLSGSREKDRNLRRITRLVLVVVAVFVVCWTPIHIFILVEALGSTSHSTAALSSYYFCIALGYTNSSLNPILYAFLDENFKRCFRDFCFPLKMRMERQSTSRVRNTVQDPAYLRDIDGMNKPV

The target of this experiment is HsKOR (Homo sapiens, UniProt P41145). Kind of experiment: cell-based. To be noted: n=3, pTDH3, integrated receptor.

Each structure is given as a SMILES string.

Take `CC[C@H](C)[C@H](NC(=O)[C@H](CCCN=C(N)N)NC(=O)[C@H](CCCN=C(N)N)NC(=O)[C@H](CC(C)C)NC(=O)[C@H](Cc1ccccc1)NC(=O)CNC(=O)CNC(=O)[C@@H](N)Cc1ccc(O)cc1)C(=O)O` [dynorphin A 1-8]: a half-maximal response (EC50, cholesterol (CHOL) strain, 95% CI=2.29 to 5.96 μM) (EC50) required 3.71 µM and the concentration giving a half-maximal response (EC50) (EC50, ergosterol (ERG) strain, 95% CI=0.768 to 2.43 μM) was 1.33 µM.
